Rows were chosen to be rich in hits. Some 2.1% of all compounds tested hit in one or more screens of this group.
GSIS activator: GLuc luminescence reporter in INS-1E cells, primary screen for activators of glucose-dependent secretion of insulin. INS-1E GLuc reporter insulin secretion, 2-3 h. activation, % at 16.6 µM. 0.61% of 370,000 active. AID 743287;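 active = lowest replicate activation of at least 40%, so every replicate reaches that level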
Yeast UUG start: modulators of start codon recognition fidelity in yeast; S. cerevisiae UUG-firefly luciferase reporter, luminescence/redox ratio; AID 602363; 350,000 tested, 0.13% active; activity score, % at 18.7 µM;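 active = replicate mean at a twofold rise or more, about +100% in these data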;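 also: firefly luciferase made from a UUG start codon reports start codon fidelity; reporter light over untreated wells divided by growth signal over untreated wells; some hits fall short of that in this replicate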
SMARCA2 act: SMARCA2 function activation, primary screen. AID 652017. activation, % at 9.1 µM. 1% of 370,000 active. MG213 cells, MMTV-luciferase reporter, dexamethasone, overnight; in the data active = activation above about 7.8%
PDI turbidity: PDI (human) enzyme inhibition; P07237; PDI insulin aggregation turbidity, A650, 90 min; inhibition, % at 10 µM; 0.052% of 350,000 active; AID 588391;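 active = mean inhibition across replicates of 30% or more, whatever share of single replicates reach that level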
NR1D1 modulator: modulators of human Rev-erb alpha DNA binding; P20393; Rev-erbα–FITC-DNA binding, fluorescence polarization, 90 min; activity, % at 10 µM; 0.79% of 370,000 active;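 active = activity above about 14%, limit read from the data; passing the limit was not always enough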
ERp5 block: blocks human ERp5 reductase activity on insulin; Q15084; ERp5 insulin aggregation, absorbance 650 nm, 90 min; inhibition, % at 9.99 µM; 0.05% of 350,000 active; AID 651711;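 active = mean replicate inhibition above about 25%, with every replicate also reaching it, limit read from the data, passing the limit was not always enough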
SMARCA2 act conf: confirmation of SMARCA2 (BRM) function activators; activation, % at 9.1 µM; shares compounds with SMARCA2 act; 30% of 3,500 active; MG213 cells, MMTV-luciferase with dexamethasone, luminescence, overnight; MG213 cells expressing E1A, Rb sequestered; DMSO wells 0%, reference activator 100%;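 active = activation above its plate's cutoff, the mean activation of tested wells plus 3 SD, cut at about 7.9% in these data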
GAL4-VP16 Luc: counter-screen for SMARCA2 activators: GAL4-VP16 luciferase reporter activation | shares compounds with SMARCA2 act | HEK293 GAL4-VP16 pG5luc reporter, luciferase luminescence; scaled: DMSO wells 0%, SAHA wells 100% | activation, % at 9.1 µM | 41% of 3,500 active;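 active = activation above the solvent-only control well mean plus 3 SD, averaged across control plates, cut at about 5.2% in these data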
A number is an active result; n = inactive; x = no result; ! = a repeat was not active.

SMILES	GSIS activator	Yeast UUG start	SMARCA2 act	PDI turbidity	NR1D1 modulator	ERp5 block	SMARCA2 act conf	GAL4-VP16 Luc
COc1cc(C(C)=O)ccc1OCc1cc(C(=O)N(C)CCC2CCCCO2)no1 (stereo not drawn)	n	n	n	n	n	n	x	x
COc1ccccc1OCc1cc(C(=O)N(C)CCC2CCCCO2)no1 (stereo not drawn)	x	n	11	n	n	n	n	11
COCC#Cc1ccc2c(c1)O[C@@H](CN(C)C(=O)C1CCC1)[C@@H](C)CN([C@@H](C)CO)S2(=O)=O	n	n	x	x	x	n	x	x
Cc1cccc2c3c([nH]c12)[C@H]1CCC(=O)N1CC3	x	x	x	x	x	n	x	x
O=C1c2cccc3cc([N+](=O)[O-])cc(c23)C(=O)N1CCN1CCCC1	n	n	64	n	n	n	n	6.5
CCN(CC)CCN1C(=O)c2cccc3cc(N)cc(c23)C1=O	n	n	11	n	n	n	26	n
O=C1c2ccccc2C(=O)N1CCN1CCCCC1	n	x	n	n	n	x	x	x
Nc1cc2c3c(cccc3c1)C(=O)N(CCN1CCCC1)C2=O	n	n	20	n	n	n	30	n
O=C(Cc1ccccn1)NCC[C@H]1CC[C@H](NC(=O)c2ccccc2F)[C@H](CO)O1	n	n	x	x	x	n	x	x
CC(=O)NCCc1ccc(C(=O)COC(=O)c2cccs2)cc1	x	n	8.6	n	n	n	9.8	n
COc1cccc(C(=O)COC(=O)c2cccs2)c1	n	n	9.1	n	n	n	12	n
CC(=O)NCCc1ccc(C(=O)COC(=O)c2ccc(C)s2)cc1	n	n	n	n	n	n	x	x
O=C(COC(=O)c1cccs1)c1ccccc1	x	n	n	n	n	x	x	x
COc1ccc(C(=O)COC(=O)c2cccs2)cc1	n	n	11	n	n	n	n	10
CC(=O)NCCc1ccc(C(=O)COC(=O)c2cccn2C)cc1	n	n	9.2	n	n	n	n	n
C[C@@H]1CCCCO[C@@H](CN(C)S(=O)(=O)c2cccs2)[C@@H](C)CN([C@@H](C)CO)C(=O)c2cc(NC(=O)NC3CCCCC3)ccc2O1	n	n	x	x	x	x	x	x
NS(=O)(=O)c1ccc(N/N=C/c2cn(-c3ccccc3)nc2-c2cccs2)c([N+](=O)[O-])c1	n	n	n	n	n	n	x	x
NS(=O)(=O)c1ccc(N/N=C/c2cn(-c3ccccc3)nc2-c2cccs2)cc1	n	n	9.6	n	n	x	9.2	n
CC1=CC(C)=Nc2ccc(C)cc2N1	n	n	8.8!	n	n	x	n	11
CO[C@@H]1CN(C)C(=O)c2cc(NC(=O)C3CCOCC3)ccc2OC[C@@H](C)N(C(C)=O)C[C@@H]1C	n	n	x	x	x	n	x	x
COc1ccccc1N1CCN(C(=O)C2CCN(C(=O)c3ccccc3Cl)CC2)CC1	n	n	8.2	n	n	n	n	n
CO[C@H]1CN(C)C(=O)c2ccc(NC(=O)C3CC3)cc2OC[C@H](C)N(C(=O)NC(C)C)C[C@H]1C	n	n	x	x	x	n	x	x
C[C@@H]1CN([C@H](C)CO)C(=O)c2cc(/C=C/c3ccccc3)cnc2O[C@@H]1CN(C)C(=O)Cc1cccnc1	n	x	x	x	x	n	x	x
CCOC(=O)c1c(NC(C)=O)sc2c(OCC(O)CNC(C)(C)C)c(Br)ccc12 (stereo not drawn)	45	n	11	n	n	x	8.7	n
CCOC(=O)c1c(N)sc2c(OCC)c(Br)ccc12	n	n	n	n	n	n	x	x
SMILES	GSIS activator	Yeast UUG start	SMARCA2 act	PDI turbidity	NR1D1 modulator	ERp5 block	SMARCA2 act conf	GAL4-VP16 Luc
CC(=O)N(C)C[C@@H]1Oc2ncccc2C(=O)N(C)C[C@H]1C	n	x	x	x	x	x	x	x
O=c1[nH]c2ccc(S(=O)(=O)Nc3ccc(-c4nnc5n4CCCCC5)cc3)cc2o1	x	n	12	n	n	x	n	n
CC(=O)N(C)C[C@H]1Oc2cc(-c3ccccc3)ccc2S(=O)(=O)N([C@@H](C)CO)C[C@@H]1C	n	n	x	x	x	n	x	x
CNC(=S)NNC(=O)c1sc2cc(C(F)(F)F)cnc2c1-c1ccccn1	n	x	8.0	n	n	n	n	n
CC(C#N)(Cc1ccccc1)Nc1ccccc1 (stereo not drawn)	n	x	10	n	n	n	n	n
O=C(C1CCOCC1)N1[C@H](CO)[C@@H]2c3ccccc3NC[C@@H]21	n	n	x	x	x	n	x	x
COc1ccc(C(=O)N=c2sc3c(C)ccc(OC)c3n2C)cc1	n	n	9.2	x	n	n	n	9.8
COc1cc(C(=O)N=c2sc3c(C)ccc(OC)c3n2C)cc(OC)c1OC	n	x	n	n	n	n	x	x
O=C(Nc1ccccc1)Nc1ccc2ncoc2c1	n	x	13	n	n	n	n	7.3
Fc1cccc(Cl)c1CSc1nnc2ccccn12	n	x	8.6	n	n	n	n	n
Cc1cc2cc3c(cc2nc1SCC(=O)N1CCOCC1)OCO3	n	n	8.4	n	n	n	n	n
COc1ccccc1CNC(=O)c1ccccc1NC(=O)C1=C(C)OCCS1	n	n	8.1	n	n	n	n	n
CCN(CC)CCNc1nc2cc(OC)c(OC)cc2c2nc(-c3ccccc3)nn12	n	n	9.7	n	n	x	26	n
O=C(O)[C@@H]1[C@@H]2C[C@@H]2CN1c1ncccc1[N+](=O)[O-]	n	n	9.9	n	n	n	n	n
Cc1nc(-c2ccccc2)sc1-c1ccn[nH]1	n	n	12	n	n	n	14	13
Cc1nc(-c2ccccc2)sc1-c1ccnn1C	n	x	n	n	n	n	x	x
Cc1ccc(NC(=S)N/N=C/c2ccc(Cl)c([N+](=O)[O-])c2)cc1	n	x	n	n	n	x	x	x
Cc1ccc(S(=O)(=O)N/N=C\c2ccc(Cl)c([N+](=O)[O-])c2)cc1	n	n	11	n	n	n	n	n
CO[C@H]1CN(C)C(=O)c2cc(NC(=O)c3ccc(F)cc3)ccc2OC[C@H](C)N(C(C)=O)C[C@H]1C	n	n	x	x	x	n	x	x
COc1ccc(SC2=C[C@@]3(O)CC[C@@H](O)[C@@](Sc4ccc(OC)cc4)(C2=O)[C@H]3O)cc1	n	x	n	x	n	n	x	x
O=C1C(Sc2ccccc2)=C[C@@]2(O)CC[C@@H](O)[C@]1(Sc1ccccc1)[C@H]2O	n	x	12	x	n	n	10	n
O=C(/C=C/c1ccco1)Nc1ccc(CN2CCOCC2)cc1	x	n	9.4	n	n	n	9.2	11
O=C(/C=C/c1ccccc1)Nc1ccc(CN2CCOCC2)cc1	n	x	n	n	n	n	x	x
CCC(=O)Nc1ccc2c(c1)C(=O)N(C)C[C@H](OC)[C@H](C)CN(CC1CCOCC1)[C@H](C)CO2	n	x	x	x	x	x	x	x
